Assay [1] deals with Ramos 2G6 cells stably transfected with XF-1. The assay can be described thus: Substrate switch recombination (SSR), GFP positive cells by FACS, construct XF-1. To be noted: XF-1 cells; cytokines alone or in combination with CD40 mAb. The class given is cell-based, human. The text has this: The backbone of our switch substrate contained 1.6 Kb of the human Sμ (Zhang and Cheah, 2000, supra) and 1.8 Kb of the human Sγ2 regions (Mills et al, 1995, supra) under the transcriptional control of the CMV (pCMV) and the SV40 promoters (pSV40) respectively. A RSV LTR enhancer/promoter (pRC/RSV-LTR) and a GFP gene under the control of an internal ribosome entry site (IRES) were interposed between Sμ and Sγ2 in the reverse transcriptional orientation (FIG. 1A). Thus, the GFP gene will not be expressed within the gennline configuration of the construct. […] Since the GFP gene is expressed only after the switch recombination (recombination or inversion, FIG. 1A) between the Sμ and Sγ2, switch recombination can be monitored in the cultured living cells in “real-time” by fluorescence microscopy. Furthermore, the frequency of switch recombination can be quantitatively measured by flow cytometry.
To test the potential roles of DNA sequences that may control or regulate the processes involved in switch recombination, the DNA fragments of interest were engineered into the basic switch construct (XF-1) to generate a series of modified switch constructs as diagrammed in the FIG. 1B. […] The integrity and copy number of the constructs were determined by Southern Blot analysis and PCR. […]
Background: A flow cytometer gives signals particle by particle.

A further assay has as its system Ramos 2G6/XF-5a.1 cells. Put plainly: Substrate switch recombination (SSR), GFP positive cells by FACS, construct XF-5a. To be noted: XF-5a / XF-5a.1 cells; antibodies 1 μg/ml, cytokines 5 ng/ml alone or with CD40 mAb. The class given is cell-based, human. The text has this:
pXF-5a: A PCR amplified 356 bp fragment containing Iε exon and its 5′ promoter region (pIε) was inserted into Xho I and Xba I sites in pXF-1.
The backbone of our switch substrate contained 1.6 Kb of the human Sμ (Zhang and Cheah, 2000, supra) and 1.8 Kb of the human Sγ2 regions (Mills et al, 1995, supra) under the transcriptional control of the CMV (pCMV) and the SV40 promoters (pSV40) respectively. A RSV LTR enhancer/promoter (pRC/RSV-LTR) and a GFP gene under the control of an internal ribosome entry site (IRES) were interposed between Sμ and Sγ2 in the reverse transcriptional orientation (FIG. 1A). Thus, the GFP gene will not be expressed within the gennline configuration of the construct. […] Since the GFP gene is expressed only after the switch recombination (recombination or inversion, FIG. 1A) between the Sμ and Sγ2, switch recombination can be monitored in the cultured living cells in “real-time” by fluorescence microscopy. Furthermore, the frequency of switch recombination can be quantitatively measured by flow cytometry. […]
The expression of GFP in cell lines stably transfected with switch vectors following various stimulated culture conditions was measured by either single- or dual-color flow cytometry (FACS Core laboratory, UCLA). The data were analyzed with FCS express software (De Novo software Inc, Thornhill, Ontario, Canada).

As for IL-2: cytokine, the “effect on SSR frequency” value in assay [1] is given as “did not increase”. The “effect on SSR” value in the assay on Ramos 2G6/XF-5a.1 cells is listed as “did not increase”.

Source of the values: US20030059763A1, “Immunoglobulin class switch recombination” (priority 2001, published 2003).
